PMC6225275 (Molecules : A Journal of Synthetic Chemistry and Natural …, 2018)

Target: tabun (GA)-inhibited human recombinant AChE (HssAChE) (Homo sapiens, UniProt P22303)
Assay: Reactivation of tabun (GA)-inhibited HssAChE, Ellman protocol
Conditions: 15 min incubation, pH 7.4, triplicate

Structure (SMILES) | GA-HssAChE Reactivation (% ± SD) (reactivator 10 μM) | GA-HssAChE Reactivation (% ± SD) (reactivator 100 μM)
ON=Cc1cc[n+](CCCC[n+]2ccccn2)cc1 [Compound 11, 4-Hydroxyiminomethyl-1,1′-(but-1,4-diyl)-1-pyridinium-1′-pyridazinium dibromide] | 4.1 ± 0.2% | 1.5 ± 0.5%
ON=Cc1cc[n+](CCCC[n+]2ccc(Cc3ccccc3)cc2)cc1.[Br-].[Br-] [Compound 17, 4-Hydroxyiminomethyl-4′-phenylmethyl-1,1′-(but-1,4-diyl)-bispyridinium dibromide] | 1.9 ± 0.6% | 0.3 ± 0.2%
ON=Cc1cc[n+](CCCC[n+]2ccc3ccccc3c2)cc1 [Compound 13, 4-Hydroxyiminomethyl-1,1′-(but-1,4-diyl)-1-pyridinium-1′-isoquinolinium dibromide] | 6.0 ± 0.2% | 3.5 ± 0.7%
CCOC(=O)c1cc[n+](CCCC[n+]2ccc(C=NO)cc2)cc1 [Compound 21, 4-Ethylcarboxy-4′-hydroxyiminomethyl-1,1′-(but-1,4-diyl)-bispyridinium dibromide] | 4.1 ± 0.2% | 1.7 ± 0.5%
NC(=O)c1cc[n+](CCCC[n+]2ccc(C=NO)cc2)cc1C(N)=O.[Br-].[Br-] [Compound 24, 3,4-Dicarbamoyl-4′-hydroxyiminomethyl-1,1′-(but-1,4-diyl)-bispyridinium dibromide] | 4.5 ± 0.2% | 1.8 ± 0.6%
CC(=O)c1cc[n+](CCCC[n+]2ccc(C=NO)cc2)cc1.[Br-].[Br-] [Compound 19, 4-Hydroxyiminomethyl-4′-methylcarbonyl-1,1′-(but-1,4-diyl)-bispyridinium dibromide] | 3.1 ± 0.1% | 1.7 ± 0.3%
ON=Cc1cc[n+](CCCC[n+]2cccc3ccccc32)cc1 [Compound 12, 4-Hydroxyiminomethyl-1,1′-(but-1,4-diyl)-1-pyridinium-1′-quinolinium dibromide] | 3.1 ± 0.3% | 0.6 ± 0.4%
